Source: patent US20250304596A1, “PYRAZINE DERIVATIVES AND USES THEREOF” (FOGHORN THERAPEUTICS INC., priority 2022, published 2025)

The chains behind the UniProt entries cited, without tags or fusion partners.
UniProt P51532, whole entry: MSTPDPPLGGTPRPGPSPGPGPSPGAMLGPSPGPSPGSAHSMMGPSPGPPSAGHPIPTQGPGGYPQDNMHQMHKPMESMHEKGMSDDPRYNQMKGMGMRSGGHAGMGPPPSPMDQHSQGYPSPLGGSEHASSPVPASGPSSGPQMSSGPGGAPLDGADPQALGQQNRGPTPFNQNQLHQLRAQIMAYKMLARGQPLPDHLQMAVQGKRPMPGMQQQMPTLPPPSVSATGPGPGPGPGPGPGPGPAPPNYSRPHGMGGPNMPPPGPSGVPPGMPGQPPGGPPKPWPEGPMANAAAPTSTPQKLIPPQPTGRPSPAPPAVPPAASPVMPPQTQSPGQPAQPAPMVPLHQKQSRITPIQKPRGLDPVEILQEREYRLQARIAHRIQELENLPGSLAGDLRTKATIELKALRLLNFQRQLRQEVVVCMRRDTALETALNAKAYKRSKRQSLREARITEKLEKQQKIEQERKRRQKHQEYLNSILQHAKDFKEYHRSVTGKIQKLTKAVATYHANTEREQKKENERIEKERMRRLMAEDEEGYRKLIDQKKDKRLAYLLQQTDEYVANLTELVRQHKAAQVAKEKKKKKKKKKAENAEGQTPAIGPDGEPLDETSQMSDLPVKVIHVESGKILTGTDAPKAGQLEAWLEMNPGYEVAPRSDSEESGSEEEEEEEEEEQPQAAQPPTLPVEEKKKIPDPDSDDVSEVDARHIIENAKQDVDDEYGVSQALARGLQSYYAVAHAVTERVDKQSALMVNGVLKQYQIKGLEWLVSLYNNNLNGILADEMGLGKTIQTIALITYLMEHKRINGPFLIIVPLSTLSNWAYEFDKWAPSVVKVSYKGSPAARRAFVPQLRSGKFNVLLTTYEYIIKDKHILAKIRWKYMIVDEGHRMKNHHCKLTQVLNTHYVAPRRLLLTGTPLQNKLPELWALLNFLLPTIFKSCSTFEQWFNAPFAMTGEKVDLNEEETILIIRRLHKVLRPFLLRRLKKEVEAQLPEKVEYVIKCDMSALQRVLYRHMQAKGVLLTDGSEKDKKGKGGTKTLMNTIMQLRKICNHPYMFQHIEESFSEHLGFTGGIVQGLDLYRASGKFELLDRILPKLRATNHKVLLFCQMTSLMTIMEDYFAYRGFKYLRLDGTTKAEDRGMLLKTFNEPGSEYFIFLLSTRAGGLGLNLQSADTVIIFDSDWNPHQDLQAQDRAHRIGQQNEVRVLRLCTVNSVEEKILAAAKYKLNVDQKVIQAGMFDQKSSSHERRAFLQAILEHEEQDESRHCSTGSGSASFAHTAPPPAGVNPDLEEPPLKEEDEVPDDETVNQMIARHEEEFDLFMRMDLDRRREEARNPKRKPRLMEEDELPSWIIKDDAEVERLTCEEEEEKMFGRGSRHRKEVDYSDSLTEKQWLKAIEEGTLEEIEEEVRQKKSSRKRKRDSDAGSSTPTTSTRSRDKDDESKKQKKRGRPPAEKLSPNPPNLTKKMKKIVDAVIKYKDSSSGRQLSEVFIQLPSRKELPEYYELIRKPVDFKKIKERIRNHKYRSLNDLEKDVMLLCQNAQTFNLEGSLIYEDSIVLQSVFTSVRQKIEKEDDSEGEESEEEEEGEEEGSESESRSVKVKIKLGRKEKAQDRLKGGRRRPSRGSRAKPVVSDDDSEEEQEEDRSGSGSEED
UniProt P51531, whole entry: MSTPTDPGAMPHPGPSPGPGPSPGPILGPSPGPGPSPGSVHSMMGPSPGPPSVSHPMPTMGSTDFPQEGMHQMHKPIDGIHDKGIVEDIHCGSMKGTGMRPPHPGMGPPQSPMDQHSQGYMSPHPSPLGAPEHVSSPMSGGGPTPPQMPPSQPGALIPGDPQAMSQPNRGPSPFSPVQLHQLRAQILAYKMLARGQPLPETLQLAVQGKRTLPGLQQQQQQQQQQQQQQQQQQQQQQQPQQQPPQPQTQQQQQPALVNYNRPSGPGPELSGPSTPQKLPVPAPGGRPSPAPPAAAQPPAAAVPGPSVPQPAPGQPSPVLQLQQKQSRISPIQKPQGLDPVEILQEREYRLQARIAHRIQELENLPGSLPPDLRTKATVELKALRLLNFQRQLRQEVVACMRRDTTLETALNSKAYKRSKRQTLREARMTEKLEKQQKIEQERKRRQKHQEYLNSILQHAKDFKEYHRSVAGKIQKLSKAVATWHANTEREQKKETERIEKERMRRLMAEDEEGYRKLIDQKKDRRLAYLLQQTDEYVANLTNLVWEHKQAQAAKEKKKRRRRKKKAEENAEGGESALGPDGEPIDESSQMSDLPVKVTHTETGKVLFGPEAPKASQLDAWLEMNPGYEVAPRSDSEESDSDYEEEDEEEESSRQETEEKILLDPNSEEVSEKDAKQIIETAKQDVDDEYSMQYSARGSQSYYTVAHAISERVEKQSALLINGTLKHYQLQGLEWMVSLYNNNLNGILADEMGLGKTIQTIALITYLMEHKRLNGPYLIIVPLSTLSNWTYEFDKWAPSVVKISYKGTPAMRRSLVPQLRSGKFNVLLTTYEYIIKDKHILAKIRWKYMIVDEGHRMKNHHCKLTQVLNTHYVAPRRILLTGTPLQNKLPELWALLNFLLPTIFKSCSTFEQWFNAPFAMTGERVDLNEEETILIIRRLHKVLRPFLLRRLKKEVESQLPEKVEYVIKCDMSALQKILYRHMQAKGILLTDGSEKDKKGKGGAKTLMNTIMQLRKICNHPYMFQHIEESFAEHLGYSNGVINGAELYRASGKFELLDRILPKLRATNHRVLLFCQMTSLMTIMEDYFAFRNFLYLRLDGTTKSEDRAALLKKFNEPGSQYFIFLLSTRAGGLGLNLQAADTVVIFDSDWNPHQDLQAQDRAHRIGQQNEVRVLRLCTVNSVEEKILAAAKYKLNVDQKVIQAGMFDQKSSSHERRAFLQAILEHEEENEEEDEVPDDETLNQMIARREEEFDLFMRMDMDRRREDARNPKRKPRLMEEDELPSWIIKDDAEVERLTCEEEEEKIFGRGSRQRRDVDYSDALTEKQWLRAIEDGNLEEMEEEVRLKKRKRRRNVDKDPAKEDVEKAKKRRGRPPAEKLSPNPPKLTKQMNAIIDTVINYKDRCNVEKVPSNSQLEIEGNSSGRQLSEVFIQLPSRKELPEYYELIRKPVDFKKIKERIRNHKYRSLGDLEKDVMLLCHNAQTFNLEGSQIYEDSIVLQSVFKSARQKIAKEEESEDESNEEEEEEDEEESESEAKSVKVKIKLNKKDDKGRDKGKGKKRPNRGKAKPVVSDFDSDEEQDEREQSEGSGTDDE

Legend:
[1] = target: HiBit-BRG1 fusion protein (Homo sapiens, UniProt P51532); experiment: HiBiT-BRG1 cell-based degradation assay (Nano-Glo HiBiT Lytic Detection, 24 h); conditions: stable HeLa cell line expressing HiBit-BRG1 and LgBit
Procedure: (§1) Procedure: A stable HeLa cell line expressing HiBiT-BRM was generated. On day 0, 5000 cells were seeded in 40 μL of media into each well of 384-well cell culture plates. On day 1, cells were treated with 120 nL DMSO or 120 nL of 3-fold serially DMSO-diluted compounds (10 points in duplicate with 30 μM as final top dose). Subsequently plates were incubated for 24 h in a standard tissue culture incubator and equilibrated at room temperature for 15 minutes. Nano-Glo HiBiT Lytic Detection System (Promega N3050) reagent was freshly prepared and 20 ul was added to each well. Upon addition of this LgBit-containing reagent, the HiBiT and LgBiT proteins associate to form the luminescent NanoBiT Iuciferase. The plates were shaken for 10 minutes at room temperature and the bioluminescence read using an EnVision plate reader (PerkinElmer).
For measurement of BRG1 degradation, a stable HeLa cell line expressing HiBit-BRG1 and LgBit was generated. The same protocol as above was then followed.
(§2) The degradation % was calculated using the following formula: % degradation=100%-100%×(LumSample−LumLC)/(LumHC−LumLC). DMSO treated cells are employed as High Control (HC) and 2 μM of a known BRM/BRG1 degrader standard treated cells are employed as Low Control (LC).

HiBit-BRM fusion protein = HiBit-BRM fusion protein (Homo sapiens, UniProt P51531); experiment: HiBiT-BRM cell-based degradation assay (Nano-Glo HiBiT Lytic Detection, 24 h)
Procedure: as §1, §2

IC50 (HiBit-BRM fusion protein; read-out: BRM HiBit Degradation IC50, stable HeLa cell line expressing HiBiT-BRM): < 10 nM
SMILES: Cc1cc(-c2cc([C@H](C(=O)N3C[C@H](O)C[C@H]3C(=O)N[C@@H](C)c3ccc(-c4scnc4C)cc3)C(C)C)on2)cnc1N1CC[C@H](c2sc3nnc(-c4ccccc4O)cc3c2C)C1
BRG1 HiBit Degradation Maximum (%) [1]: C (“C” indicates maximum degradation <50%)
BRM HiBit Degradation Maximum (%) (HiBit-BRM fusion protein; stable HeLa cell line expressing HiBiT-BRM): A (“A” indicates maximum degradation ≥75%)
